# Laboratory results as given in patent publication CN116178540A (SANYOU BIO INC, dated 2023).
# Chains of the proteins cited; added tags and fusions are not shown. A line that says so, or that is headed by a name, gives the form on record, which may keep a tag or linker.
# UniProt O15123, other isoform, or with tags, fused parts or gaps limits assumed: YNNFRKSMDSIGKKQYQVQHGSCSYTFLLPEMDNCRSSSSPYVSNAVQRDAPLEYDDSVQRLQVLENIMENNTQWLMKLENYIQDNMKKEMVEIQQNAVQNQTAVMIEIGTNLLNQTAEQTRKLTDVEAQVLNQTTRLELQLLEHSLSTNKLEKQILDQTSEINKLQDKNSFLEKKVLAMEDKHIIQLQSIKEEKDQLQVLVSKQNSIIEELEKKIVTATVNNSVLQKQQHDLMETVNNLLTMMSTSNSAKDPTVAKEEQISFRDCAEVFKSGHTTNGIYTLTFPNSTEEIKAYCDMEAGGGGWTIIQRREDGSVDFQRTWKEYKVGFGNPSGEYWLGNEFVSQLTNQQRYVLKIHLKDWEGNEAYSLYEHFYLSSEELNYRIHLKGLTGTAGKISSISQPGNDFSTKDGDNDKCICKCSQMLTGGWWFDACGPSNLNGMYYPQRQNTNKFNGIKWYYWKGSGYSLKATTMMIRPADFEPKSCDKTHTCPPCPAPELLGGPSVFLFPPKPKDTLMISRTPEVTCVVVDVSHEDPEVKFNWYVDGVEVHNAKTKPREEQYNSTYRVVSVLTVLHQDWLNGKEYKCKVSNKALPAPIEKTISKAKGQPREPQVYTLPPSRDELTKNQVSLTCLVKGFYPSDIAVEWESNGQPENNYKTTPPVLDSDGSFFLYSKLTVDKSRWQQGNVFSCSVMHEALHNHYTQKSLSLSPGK
# B1: 抗体78A14 (antibody, V domains shown)
# VH: EVQLLESGGGVVQPGRSLRLSCAASGFTFNVYGMHWVRQAPGKGLEWVAVISYDGSNKYYADSVKGRFTISRDNSKNTLYLQMNSLRAEDTAVYYCAKATLDGYTAGYYYGMDVWGQGTTVTVSS
# VL: EIVLTQSPATLSLSPGERATLSCRASQSVSSYLAWYQQKPGQAPRLLIYGPSNRATGIPDRFSGGGSGTDFTLTISRLEPEDFAVYYCQHYGVSQHTFGQGTKLEIKR
# Tests used:
# [1] = biological target: T1, hANG2-Fc (human, UniProt O15123 19-496, limits assumed, biotin-labelled in the blocking assays (sites not given)); assay: cell-based or functional assay
# [2] = biological target: T1, hANG2-Fc; assay: FACS competition, hANG2-Fc-biotin premixed with titrated antibody, binding to hTIE2-HEK293 cells
# [3] = biological target: T1, hANG2-Fc; assay: competition ELISA, hTIE2 ECD-Fc coated, biotinylated hANG2-Fc (4 μg/mL) premixed with titrated antibody
binder,measurement,setting,value
B1,"对TIE2磷酸化的抑制活性 IC50 (hTIE2-HEK293 cells, phospho-Tie-2 ELISA)",[1],7.31 µg/mL
same,IC50,[2],0.265 µg/mL
same,IC50,[3],0.631 µg/mL
